Results from patent publication US20030104393A1, “Blood assessment of injury” (priority 2000, published 2003).

System: neurons
Conditions: regular insulin subcutaneously, hypoglycemic for 4 hours

regular insulin
Neuronal injury: severe diffuse neuronal injury
